Test results as given in patent US6770652B2, “Multiple acting anti-angiogenic and cytotoxic compounds and methods for using the same” (Duquesne University of the Holy Ghost, priority 2001, dated 2004).

By UniProt entry, the sequences of proteins in these tests, tags left out. Residues count along the entry.
UniProt P35968, 20-1356: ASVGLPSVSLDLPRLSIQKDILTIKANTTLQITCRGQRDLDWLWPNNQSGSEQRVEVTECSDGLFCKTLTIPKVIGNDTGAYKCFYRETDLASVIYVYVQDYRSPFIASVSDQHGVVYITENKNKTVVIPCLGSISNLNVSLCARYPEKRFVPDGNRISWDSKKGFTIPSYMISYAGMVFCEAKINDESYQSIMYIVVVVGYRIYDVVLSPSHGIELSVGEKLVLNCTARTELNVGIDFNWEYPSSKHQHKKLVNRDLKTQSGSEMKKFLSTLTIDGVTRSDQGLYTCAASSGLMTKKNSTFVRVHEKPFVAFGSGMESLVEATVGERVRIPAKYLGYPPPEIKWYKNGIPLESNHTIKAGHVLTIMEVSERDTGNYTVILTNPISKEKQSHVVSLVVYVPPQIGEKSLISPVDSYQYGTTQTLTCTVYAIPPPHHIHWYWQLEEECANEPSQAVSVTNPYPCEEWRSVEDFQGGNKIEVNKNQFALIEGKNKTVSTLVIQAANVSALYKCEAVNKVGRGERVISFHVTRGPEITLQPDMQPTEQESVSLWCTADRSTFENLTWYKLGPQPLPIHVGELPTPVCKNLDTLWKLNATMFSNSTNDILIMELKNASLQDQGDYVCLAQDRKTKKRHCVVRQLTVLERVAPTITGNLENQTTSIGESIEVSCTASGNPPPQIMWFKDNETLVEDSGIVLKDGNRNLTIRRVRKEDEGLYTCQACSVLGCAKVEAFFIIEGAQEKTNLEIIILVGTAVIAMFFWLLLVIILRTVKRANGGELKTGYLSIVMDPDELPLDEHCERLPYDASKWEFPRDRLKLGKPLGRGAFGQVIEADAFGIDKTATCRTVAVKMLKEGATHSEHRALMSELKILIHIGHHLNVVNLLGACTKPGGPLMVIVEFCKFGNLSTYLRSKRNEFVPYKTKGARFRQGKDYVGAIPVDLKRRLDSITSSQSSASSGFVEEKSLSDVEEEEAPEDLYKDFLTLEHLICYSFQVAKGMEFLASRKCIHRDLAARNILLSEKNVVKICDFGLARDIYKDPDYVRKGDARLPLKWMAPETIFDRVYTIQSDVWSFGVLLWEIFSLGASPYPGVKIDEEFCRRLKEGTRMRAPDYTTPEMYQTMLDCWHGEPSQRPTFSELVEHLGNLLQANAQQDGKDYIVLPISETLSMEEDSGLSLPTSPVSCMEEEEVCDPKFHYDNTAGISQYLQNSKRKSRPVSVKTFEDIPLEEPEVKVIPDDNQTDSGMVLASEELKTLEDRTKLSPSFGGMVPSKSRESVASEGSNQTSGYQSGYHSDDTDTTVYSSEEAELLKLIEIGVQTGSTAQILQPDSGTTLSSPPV

Biological target: Flk-1 (Homo sapiens, UniProt P35968)
Test: Phospho-Flk1 phosphotyrosine ELISA (cytoblot) on whole U251 glioblastoma cells; Flk1 kinase inhibition

Nc1nc(Nc2cccc(Br)c2)c2cc(Cc3ccccc3)[nH]c2n1 [YJ/AG 156]
IC50: > 50 µM
